Source: patent US20170258722A1, “ENCAPSULATING LIPOSOMES” (priority 2012, published 2017)

Structure (SMILES): CN1CC[C@]23c4c5ccc(O)c4O[C@H]2C(=O)CC[C@H]3[C@H]1C5 [Hydromorphone, hydromorphone]
- in vitro leakage, liposomes loaded using 240 mM ammonium sulfate versus passive aqueous capture of hydromorphone hydrochloride (FIG. 1, drug present in liposomes as the sulfate salt): less
- in vitro leakage on increasing the concentration of ammonium sulfate inside the liposomes (FIG. 2, different concentrations of ammonium sulfate): not diminished
- time within which nearly all of the release occurred (acid loaded liposomes, unbuffered saline, 22° C.): ≤ 24 h
